# Results from PubChem BioAssay (NCATS).
# The chains behind the UniProt entries cited, without tags or fusion partners. Where a name states a change or a piece, a line headed by the entry shows the natural chain unless it says otherwise.
# UniProt P10275: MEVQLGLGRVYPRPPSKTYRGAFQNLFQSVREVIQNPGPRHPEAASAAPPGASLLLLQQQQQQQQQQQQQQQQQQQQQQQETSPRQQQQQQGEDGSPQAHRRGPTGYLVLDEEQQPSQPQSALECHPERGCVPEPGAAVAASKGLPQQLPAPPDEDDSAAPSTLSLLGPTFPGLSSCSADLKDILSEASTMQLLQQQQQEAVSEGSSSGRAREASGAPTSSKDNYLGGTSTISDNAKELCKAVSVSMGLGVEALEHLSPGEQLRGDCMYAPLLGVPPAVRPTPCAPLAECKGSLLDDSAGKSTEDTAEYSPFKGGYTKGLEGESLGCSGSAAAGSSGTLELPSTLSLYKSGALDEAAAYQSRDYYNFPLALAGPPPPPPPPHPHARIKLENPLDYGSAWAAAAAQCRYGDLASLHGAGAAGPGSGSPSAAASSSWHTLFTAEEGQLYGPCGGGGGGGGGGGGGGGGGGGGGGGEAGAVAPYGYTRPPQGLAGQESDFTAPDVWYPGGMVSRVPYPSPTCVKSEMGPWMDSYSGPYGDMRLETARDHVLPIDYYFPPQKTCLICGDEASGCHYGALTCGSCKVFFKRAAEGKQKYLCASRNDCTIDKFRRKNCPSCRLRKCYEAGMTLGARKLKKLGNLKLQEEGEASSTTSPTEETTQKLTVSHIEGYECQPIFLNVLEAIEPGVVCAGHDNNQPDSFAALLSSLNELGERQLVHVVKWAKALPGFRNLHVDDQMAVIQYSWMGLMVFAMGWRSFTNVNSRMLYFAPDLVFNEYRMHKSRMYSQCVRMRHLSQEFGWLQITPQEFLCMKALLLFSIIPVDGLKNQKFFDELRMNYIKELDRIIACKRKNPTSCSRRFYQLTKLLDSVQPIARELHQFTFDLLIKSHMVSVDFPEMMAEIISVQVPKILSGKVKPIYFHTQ
# UniProt P03372, whole entry, looked up: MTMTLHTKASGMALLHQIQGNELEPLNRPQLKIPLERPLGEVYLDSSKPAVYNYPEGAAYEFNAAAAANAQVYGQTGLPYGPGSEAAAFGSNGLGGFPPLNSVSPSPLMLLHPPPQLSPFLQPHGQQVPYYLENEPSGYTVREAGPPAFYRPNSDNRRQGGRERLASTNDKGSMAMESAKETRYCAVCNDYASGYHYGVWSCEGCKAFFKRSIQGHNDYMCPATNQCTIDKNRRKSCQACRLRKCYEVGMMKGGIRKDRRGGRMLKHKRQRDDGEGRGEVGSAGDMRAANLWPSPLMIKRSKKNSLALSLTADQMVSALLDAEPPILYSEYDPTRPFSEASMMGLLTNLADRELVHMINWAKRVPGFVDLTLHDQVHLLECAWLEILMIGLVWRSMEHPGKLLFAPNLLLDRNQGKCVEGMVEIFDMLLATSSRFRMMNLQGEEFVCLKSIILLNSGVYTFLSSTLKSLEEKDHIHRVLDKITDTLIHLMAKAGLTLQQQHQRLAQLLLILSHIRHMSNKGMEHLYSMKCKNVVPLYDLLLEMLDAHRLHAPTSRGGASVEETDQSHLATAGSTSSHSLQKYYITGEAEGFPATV
# UniProt P19793: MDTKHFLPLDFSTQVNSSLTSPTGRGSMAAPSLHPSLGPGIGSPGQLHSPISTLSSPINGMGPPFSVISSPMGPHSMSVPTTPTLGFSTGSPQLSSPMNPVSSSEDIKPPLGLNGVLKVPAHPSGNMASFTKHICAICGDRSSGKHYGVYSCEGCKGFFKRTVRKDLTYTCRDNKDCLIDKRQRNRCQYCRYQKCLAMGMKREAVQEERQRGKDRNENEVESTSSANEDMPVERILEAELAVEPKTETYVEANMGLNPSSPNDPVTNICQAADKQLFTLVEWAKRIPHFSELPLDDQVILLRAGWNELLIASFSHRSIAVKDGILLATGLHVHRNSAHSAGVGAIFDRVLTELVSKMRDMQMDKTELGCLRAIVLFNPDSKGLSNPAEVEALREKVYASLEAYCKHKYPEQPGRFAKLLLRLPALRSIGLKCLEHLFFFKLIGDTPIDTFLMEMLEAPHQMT
# UniProt P10828: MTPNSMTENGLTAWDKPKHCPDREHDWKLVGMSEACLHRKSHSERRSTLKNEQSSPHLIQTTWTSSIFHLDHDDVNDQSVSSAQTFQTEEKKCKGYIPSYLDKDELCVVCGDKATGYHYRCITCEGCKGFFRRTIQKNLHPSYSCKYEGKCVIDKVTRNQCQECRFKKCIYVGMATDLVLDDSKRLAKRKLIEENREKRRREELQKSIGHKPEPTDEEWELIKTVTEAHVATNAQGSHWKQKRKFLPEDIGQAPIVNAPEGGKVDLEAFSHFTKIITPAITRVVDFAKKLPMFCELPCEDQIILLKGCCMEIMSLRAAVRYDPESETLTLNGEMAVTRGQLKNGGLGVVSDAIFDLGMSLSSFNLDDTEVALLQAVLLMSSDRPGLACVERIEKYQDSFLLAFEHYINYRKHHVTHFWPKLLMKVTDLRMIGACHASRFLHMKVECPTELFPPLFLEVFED
# Listed are the inconclusive results; actives and inactives stand elsewhere. Unless noted, the call rests on the fitted dose curve.
# Key:
# [1] = qHTS assay for small molecule activators of the nuclear factor-kappa B (NF-kB) signaling pathway (AID 651749; active means well fitted activation curve with a large enough effect in the signal ratio; inconclusive means small, poorly fitted or top-dose-only effect, or a change in a side signal; the % refers to the signal ratio; further: potency means the concentration at half of the fitted maximal effect); conditions: NF-kB-bla ME-180 cells, beta-lactamase FRET ratio, 16 h
# Method in brief: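 Stably transfected ME-180 line; NF-kB response element upstream of beta-lactamase. Treatment: compound or DMSO, 16 hr. Detection: fluorescent FRET substrate.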
# [2] = target: Androgen receptor (Homo sapiens) (UniProt P10275); assay: qHTS assay for small molecule antagonists of androgen receptor signaling (AID 588516; active means well fitted curve in the direction sought with a large enough effect in the signal ratio, with a control signal flat, not every such curve was filed as active; inconclusive means small, poorly fitted or top-dose-only effect, or effect the other way, or a change in a side signal; inactive means no such curve, though single readings can be large or run the other way; the % refers to the signal ratio; further: potency means the concentration at half of the fitted maximal effect); conditions: AR-UAS-bla HEK293, beta-lactamase ratio, antagonist mode, 16 h; activity change, negative = inhibition: at 76.8 µM (top of the series)
# [3] = target: Bile acid receptor (Homo sapiens) (UniProt Q96RI1); assay: qHTS assay for small molecule agonists of farnesoid X receptor signaling (AID 588527); conditions: HEK293T FXR-UAS-bla, beta-lactamase ratio, 16 h; activation: active compounds read high; further: potency means the concentration at half of the fitted maximal effect
# [4] = target: Glucocorticoid receptor (Homo sapiens) (UniProt P04150); assay: qHTS assay for small molecule antagonists of glucocorticoid receptor signaling (AID 588533; active means well fitted inhibition curve with a large enough effect in the signal ratio, with a control signal flat, not every such curve was filed as active; inconclusive means small, poorly fitted or top-dose-only effect, or effect the other way, or a change in a side signal; the % refers to the signal ratio;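 further: cells stimulated with 2 nM dexamethasone as agonist; potency means the concentration at half of the fitted maximal effect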); conditions: HeLa MMTV-bla, GRE beta-lactamase ratio, antagonist mode, 18 h; activity change, negative = inhibition: at 76.8 µM (top of the series)
# [5] = target: Vitamin D3 receptor (Homo sapiens) (UniProt P11473); assay: qHTS assay for small molecule agonists of vitamin D receptor signaling (AID 588543); conditions: HEK293T VDR-UAS-bla, beta-lactamase ratio, 16 h; further: potency means the concentration at half of the fitted maximal effect
# Method in brief: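 qHTS in agonist mode: compound titrations stimulate a VDR-driven β-lactamase reporter in HEK293T cells over 16 h at 37 °C. Response normalized to 50 nM 1α,25-dihydroxyvitamin D3 = 100%, DMSO = 0%; Hill fitting gives EC50 and maximal response.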
# [6] = qHTS assay for small molecule activators of the p53 signaling pathway (AID 651743; active means well fitted activation curve with a large enough effect in the signal ratio, not every such curve was filed as active; inconclusive means small, poorly fitted or top-dose-only effect, or a change in a side signal; the % refers to the signal ratio; further: potency means the concentration at half of the fitted maximal effect); conditions: HCT-116 p53RE-bla, beta-lactamase FRET ratio, 16 h
# [7] = target: Mitogen-activated protein kinase 10 (Mus musculus) (UniProt Q61831); assay: JNK3 AlphaScreen Assay (AID 530; active means well fitted curve in either direction with a large enough effect, not every such curve was filed as active; inconclusive means small, poorly fitted or top-dose-only effect, or another doubt); conditions: JNK3 lysate, c-Jun phosphorylation
# Method in brief: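 Room-temperature AlphaScreen kinase assay; pre-activated HepG2 lysate as JNK3 source, biotin-GST-cJun(1-79) substrate, 10 uM ATP, compound 15 min preincubation.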
# [8] = qHTS Assay for Inhibitors of Fructose-1,6-bisphosphate Aldolase from Giardia Lamblia: Giardia lamblia growth inhibition (AID 2785; active means well fitted curve in the direction sought with a large enough effect; inconclusive means small, poorly fitted or top-dose-only effect, or another doubt; inactive means no such curve, though single readings can be large; an effect the other way counts as inactive or inconclusive; further: on the % scale 0 is the no-effect control and ±100 the full control effect; nearly all actives have a fitted effect of over 70% in size); conditions: Giardia lamblia trophozoite growth inhibition; at 10.4 µM (top of the series)
# Method in brief: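 Whole-parasite growth test: Giardia WB trophozoites in TYI-S-33 (pH 7.0), 100 per well, incubated 48 h at 37C with compound. ATP content was read by ATPlite luminescence.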
# [9] = target: Estrogen receptor (Homo sapiens) (UniProt P03372); assay: qHTS assay for small molecule antagonists of estrogen receptor alpha signaling (AID 588513; active means well fitted curve in the direction sought with a large enough effect in the signal ratio, with a control signal flat, not every such curve was filed as active; inconclusive means small, poorly fitted or top-dose-only effect, or effect the other way, or a change in a side signal; inactive means no such curve, though single readings can be large or run the other way; the % refers to the signal ratio; further: potency means the concentration at half of the fitted maximal effect); conditions: ER-alpha-UAS-bla HEK293, beta-lactamase ratio, antagonist mode; activity, negative = inhibition: at 76.9 µM (top of the series)
# [10] = target: Retinoic acid receptor RXR-alpha (Homo sapiens) (UniProt P19793); assay: qHTS assay for small molecule agonists of retinoid X receptor alpha signaling (AID 588544); conditions: HEK293T RXRa-UAS-bla, beta-lactamase reporter, 18 h; activation: at 76.7 µM (top of the series); further: potency means the concentration at half of the fitted maximal effect
# [11] = target: Thyroid hormone receptor beta (Homo sapiens) (UniProt P10828); assay: qHTS assay for small molecule antagonists of thyroid hormone receptor beta signaling (AID 588547; active means well fitted inhibition curve with a large enough effect in the signal ratio, with a control signal flat, not every such curve was filed as active; inconclusive means small, poorly fitted or top-dose-only effect, or effect the other way, or a change in a side signal; the % refers to the signal ratio; further: potency means the concentration at half of the fitted maximal effect); conditions: TR-UAS-bla HEK293, beta-lactamase ratio, antagonist mode, 18 h; inhibition: active compounds read low
# Method in brief: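 Inhibition of T3-driven (0.4nM final) beta-lactamase reporter activity was measured over 0.59 nM to 92 uM compound after 18 h at 37 C. The cells were GripTite HEK293 TR-UAS-bla in charcoal/dextran-stripped serum, with CCF4 ratio read-out and IC50 from Hill fits.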
# [12] = Primary qHTS for inhibitors of nuclear receptor binding SET domain protein 2 (NSD2) in an isogenic RCH-ACV NSD2 p.E1099K mutant (9B) (AID 1645876; active means well fitted curve in the direction sought with a large enough effect; inconclusive means small, poorly fitted or top-dose-only effect, or another doubt; inactive means no such curve, though single readings can be large; an effect the other way counts as inactive or inconclusive; further: potency means the concentration at half of the fitted maximal effect; nearly all actives have a fitted effect of over 70% in size); conditions: RCH-ACV NSD2 E1099K (9B) viability, CellTiter-Glo, 72 h
# [13] = Primary qHTS for inhibitors of nuclear receptor binding SET domain protein 2 (NSD2) in an RCH-ACV wild type WT cells (2C) (AID 1645877; active means well fitted curve in the direction sought with a large enough effect; inconclusive means small, poorly fitted or top-dose-only effect, or another doubt; inactive means no such curve, though single readings can be large; an effect the other way counts as inactive or inconclusive; further: potency means the concentration at half of the fitted maximal effect; nearly all actives have a fitted effect of over 70% in size); conditions: RCH-ACV (leukaemia line) NSD2 WT (2C) viability, CellTiter-Glo, 72 h
compound,measurement,setting,value
CCCCOP(=O)(OCCCC)OCCCC,Potency,[1],inconclusive: 56.2 µM
O=C1C2CC=CCC2C(=O)N1SC(Cl)(Cl)C(Cl)Cl (centres undefined),Potency,[2],inconclusive: 5.01 µM
same,Potency,[3],inconclusive: 50.1 µM
same,Potency,[4],inconclusive: 31.6 µM
same,Potency,[5],inconclusive: 3.16 µM
same,Potency,[6],inconclusive: 22.4 µM
CN(C(=O)Cc1ccccc1)[C@@H]1CC[C@@]2(CCCO2)C[C@H]1N1CCCC1,Potency,[7],inconclusive: 6.31 µM
C[N+]1=C2C=CC=CC=C2SC12C([N+](=O)[O-])=CC([N+](=O)[O-])=C[C-]2[N+](=O)[O-] (centres undefined),"activity change, negative = inhibition",[8],inconclusive: -101%
COP(=S)(Cl)OC,Potency,[9],inconclusive: 3.98 µM
same,Potency,[5],inconclusive: 0.0014 µM
same,Potency,[10],inconclusive: 25.1 µM
same,Potency,[11],inconclusive: 1.3 nM
CN(C(=O)Cc1ccc(Cl)c(Cl)c1)[C@H]1CCCC[C@H]1N1CCCC1,Potency,[12],inconclusive: 29 µM
same,Potency,[13],inconclusive: 14.5 µM
